Measured affinities in a library of Ab-14 heavy chain variants

Source: Engelhart et al. 2022 (doi:10.1038/s41597-022-01779-4), MIT Lincoln Laboratory and A-Alpha Bio; data file from the FLAb repository.

The target is the same throughout: PDVDLGDISGINAS, from the HR2 region of SARS-CoV-2 spike.

Parent: Ab-14, a human scFv built as VH, a (GGGGS)3 linker, VL. Only the CDRs of the heavy chain vary.
VH: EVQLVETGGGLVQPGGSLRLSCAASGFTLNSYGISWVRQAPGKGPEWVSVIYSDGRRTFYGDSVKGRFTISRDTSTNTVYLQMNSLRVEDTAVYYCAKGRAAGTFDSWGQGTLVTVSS
VL: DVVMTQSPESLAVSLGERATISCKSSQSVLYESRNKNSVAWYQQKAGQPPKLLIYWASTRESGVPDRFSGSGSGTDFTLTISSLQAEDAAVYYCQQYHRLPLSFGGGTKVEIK

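The parent was found by panning a naive human phage display library on the peptide. In library AAYL49, one, two or three CDR residues were substituted; doubles and triples were drawn at random. AlphaSeq pools MATa yeast showing the antibodies with MATalpha yeast showing the peptide. After mating in shaken culture at 30 °C for 16 h, diploids were selected and their barcode pairs sequenced. The ratio of observed to expected reads was calibrated, replicate by replicate, on BCL2-family standards whose Kd was known from biolayer interferometry. There are three technical replicates.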

Positions count from residue 1 of the parent VH; R57G puts G in place of R.
This list gathers variants with a substitution at R57 (VH, numbered from residue 1).
Kd is apparent (estimated from mating counts) and averaged on the log scale over replicates with a signal. Smaller is tighter.
A pair that was not seen in any replicate is written "nd"; this usually means weak binding, but a binder can also be missed.
Nonspecific signal, from three strains lacking the peptide, appeared in 15% of pairings of library AAYL49, centred on 11 µM (5% of these signals below 680 nM); values are not corrected for it.

For R57G/V64H/A101P, the assay gave nd (0 of 3 replicates).
For G55I/R57Y/G61M, the assay gave 7.9 µM (1 of 3 replicates).
For I34W/I51D/R57I, the assay gave nd (0 of 3 replicates).
For N30Y/R57P/Y60H, the assay gave nd (0 of 3 replicates).
For N30W/D54Q/R57D, the assay gave nd (0 of 3 replicates).
For T28V/R57L/S63T, the assay gave nd (0 of 3 replicates).
For R57T/D62W/G103I, the assay gave nd (0 of 3 replicates).
For T28R/R57P/G99I, the assay gave nd (0 of 3 replicates).
For S31E/R57C/G61Q, the assay gave nd (0 of 3 replicates).
For G55Y/R57H/D106R, the assay gave 23 µM (2 of 3 replicates).
For R56G/R57M/K65V, the assay gave nd (0 of 3 replicates).
For L29D/R57P, the assay gave 29 µM (2 of 3 replicates).
For Y32F/R57Y/D62Q, the assay gave 220 µM (1 of 3 replicates).
For F27H/N30G/R57M, the assay gave 520 µM (1 of 3 replicates).
For G26K/R56P/R57H, the assay gave 2.5 µM (1 of 3 replicates).
For R57Y/A102Q/S107Y, the assay gave nd (0 of 3 replicates).
For L29Q/S35F/R57H, the assay gave nd (0 of 3 replicates).
For S35T/R57E/T104S, the assay gave 8.7 µM (2 of 3 replicates).
For R57T/V64R/D106G, the assay gave nd (0 of 3 replicates).
For N30R/R57K/G99A, the assay gave 260 µM (2 of 3 replicates).
For V50L/Y52A/R57T, the assay gave 1.5 µM (1 of 3 replicates).
For L29K/S53W/R57M, the assay gave nd (0 of 3 replicates).
For R57K/A102E/T104E, the assay gave nd (0 of 3 replicates).
For S31D/R57P, the assay gave nd (0 of 3 replicates).
For F27D/V50W/R57Q, the assay gave 8.4 µM (2 of 3 replicates).
For Y52G/R57H/F105W, the assay gave nd (0 of 3 replicates).
For I34S/R57Y/A102Q, the assay gave nd (0 of 3 replicates).
For I34F/R57P/G103T, the assay gave 15 µM (1 of 3 replicates).
For F27I/R57E/A102E, the assay gave nd (0 of 3 replicates).
For R57C/S63Q, the assay gave nd (0 of 3 replicates).
For R57A/F59P/S63E, the assay gave 4.3 µM (1 of 3 replicates).
For V50M/R57V/F59Y, the assay gave 200 nM (1 of 3 replicates).
For F27C/G33A/R57I, the assay gave 3.4 µM (2 of 3 replicates).
For S31L/D54Y/R57P, the assay gave 2.6 µM (2 of 3 replicates).
For R57D, the assay gave nd (0 of 3 replicates).
For R57V/G103T, the assay gave 83 µM (2 of 3 replicates).
For D54A/R57V/G99Q, the assay gave nd (0 of 3 replicates).
For L29S/I34W/R57H, the assay gave 1.0 µM (1 of 3 replicates).
For T28E/R57G/T58E, the assay gave 8.8 µM (1 of 3 replicates).
For S53Q/R57N/T104D, the assay gave 27 µM (1 of 3 replicates).

The closing 2 entries, repeated:

changes	Kd (apparent)	detected
T28E/R57G/T58E	8.8 µM	1 of 3
S53Q/R57N/T104D	27 µM	1 of 3